The text below walks through data of patent US20240325379A1, “LOW-DOSE NALTREXOL AND USES THEREOF” (AETHER THERAPEUTICS INC., priority 2021, published 2024).

Protein sequences, listed by entry. Tags and fused reporters are not part of them.
UniProt P35372, whole entry: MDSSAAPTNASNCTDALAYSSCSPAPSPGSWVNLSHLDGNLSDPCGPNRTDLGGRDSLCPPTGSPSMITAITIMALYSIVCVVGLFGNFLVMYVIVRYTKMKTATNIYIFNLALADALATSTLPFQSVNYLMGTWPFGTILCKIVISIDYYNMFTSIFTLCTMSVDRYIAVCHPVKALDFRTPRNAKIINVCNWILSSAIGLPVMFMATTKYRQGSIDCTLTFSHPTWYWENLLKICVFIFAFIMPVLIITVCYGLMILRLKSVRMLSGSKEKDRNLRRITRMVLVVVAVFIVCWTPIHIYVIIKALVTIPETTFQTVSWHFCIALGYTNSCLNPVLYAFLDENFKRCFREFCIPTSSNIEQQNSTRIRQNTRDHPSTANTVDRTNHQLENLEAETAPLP

The target in this test is MOR (Homo sapiens, UniProt P35372). The experiment in a line: Neutral antagonism at MOR. An excerpt:
The invention embodies usage of any of these compounds or derivatives or metabolites thereof.

With `Oc1ccc2c3c1O[C@H]1[C@H](O)CC[C@@]4(O)[C@@H](C2)N(CC2CC2)CC[C@]314` [6α-naltrexol], the type of antagonism entry is reported as “neutral antagonism”.
